AC50 data for one molecule are collected here from patent US9408793B2, “Selective compounds inhibiting CYP26A1 useful in cosmetic and pharmaceutical compositions” (GALDERMA RESEARCH & DEVELOPMENT, priority 2012, dated 2016).

This test deals with T1, human CYP26A1 enzyme (Homo sapiens, UniProt O43174).
T1 construct: expressed in transfected cells; host or cells: HeLa cells
T1 sequence (O43174 1-497): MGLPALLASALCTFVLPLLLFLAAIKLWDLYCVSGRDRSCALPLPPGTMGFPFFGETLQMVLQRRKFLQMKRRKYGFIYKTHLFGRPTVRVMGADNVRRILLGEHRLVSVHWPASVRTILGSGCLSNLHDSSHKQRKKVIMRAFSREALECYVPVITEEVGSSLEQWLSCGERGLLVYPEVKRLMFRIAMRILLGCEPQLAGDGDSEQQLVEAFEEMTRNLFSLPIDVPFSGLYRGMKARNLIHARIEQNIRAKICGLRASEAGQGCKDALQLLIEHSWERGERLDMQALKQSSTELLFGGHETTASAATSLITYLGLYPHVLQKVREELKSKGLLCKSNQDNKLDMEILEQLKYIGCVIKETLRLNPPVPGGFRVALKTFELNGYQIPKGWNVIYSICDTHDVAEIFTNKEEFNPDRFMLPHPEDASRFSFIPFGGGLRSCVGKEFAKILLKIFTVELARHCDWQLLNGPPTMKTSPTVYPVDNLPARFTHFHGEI
Description: Cell test, HeLa cells overexpressing human CYP26A1, metabolism of radiolabelled retinoic acid (3H-RA). It counts as cell-based. Particulars: 3 h incubation with 3H-RA, mean of two experiments. Here is the method:
A cell test using HeLa cells overexpressing either the human CYP26A1 enzyme or the human CYP26B1 enzyme, similar to that described in White et al.(Proc Natl Acad Sci U S A. 2000 Jun 6; 97(12): 6403-8), was used. Briefly, the cells were plated out in multiple-well plates and treated with the compounds according to the invention or the positive controls such as liarozole or rambazole, and subsequently exposed to radiolabelled retinoic acid (3H-RA). After the incubation time of 3 h, the reaction was stopped and an extraction phase was carried out in order to separate the aqueous and organic layers. The amount of radioactivity present in the aqueous layer was then measured as an indicator of the amount of RA which was metabolized.
A first experiment using 3 different concentrations of compounds according to the invention (0.1, 1 and 10 μM) was carried out in order to evaluate the inhibitory activity of the compounds. A second test was then carried out with a wide range of concentrations (0.01, 0.1, 0.5, 1, 5 and 10 μM). The results obtained during these two tests are similar.
The following table lists the mean of the AC50 values obtained over these two experiments.

One may read the AC50 as the midpoint of the concentration-response curve, whichever way the signal moves. A low value points to greater potency. Molecule `Clc1cccc(C(c2ccc3[nH]cnc3c2)n2ccnc2)c1` (stereo not shown) [Liarozole] registered an AC50 of 4 µM.
